These results are taken from patent US11124497B1, “Inhibitors of cysteine proteases and methods of use thereof” (priority 2020, dated 2021).

Amino acid sequences for entries named in this document (tags omitted). Residues count along the entry.
UniProt P0C6X1, 2966-3267 limits assumed: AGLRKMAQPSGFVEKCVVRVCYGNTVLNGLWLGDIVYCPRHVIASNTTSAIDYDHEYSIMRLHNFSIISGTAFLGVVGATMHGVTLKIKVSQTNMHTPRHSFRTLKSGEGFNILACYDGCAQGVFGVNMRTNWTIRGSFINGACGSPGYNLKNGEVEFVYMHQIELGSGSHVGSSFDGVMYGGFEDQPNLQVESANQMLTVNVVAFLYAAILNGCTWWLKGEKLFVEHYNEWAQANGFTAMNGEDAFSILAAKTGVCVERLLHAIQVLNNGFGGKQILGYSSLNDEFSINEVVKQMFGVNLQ

The target in the experiment is 229E mPRO (Human coronavirus 229E (HCoV-229E), UniProt P0C6X1). Put plainly: 229E mPRO enzymatic assay. The experiment is classed as biochemical, Human Coronavirus (HCov) 229E.

`N#C[C@H](C[C@@H]1CCNC1=O)NC(=O)[C@H](CC1CC1)NC(=O)c1nc2ccncc2[nH]1` [Compound 129, N-[(1S)-2-[[(1S)-1-cyano-2-[(3S)-2-oxopyrrolidin-3-yl]ethyl]amino]-1-(cyclopropylmethyl)-2-oxo-ethyl]-3H-imidazo[4,5-c]pyridine-2-carboxamide] returned an IC50 of 2 to 10 µM.

A word on the IC50: it is the midpoint of a concentration-inhibition curve. Low values mean inhibition by little substance, high ones a need for much substance.
